One compound from paper PMC11531485, “Examining prestructured β-actin peptides as substrates of histidine methyltransferase SETD3” (Scientific Reports, 2024) can be followed below.

Protein sequences, listed by entry. Tags and fused reporters are not part of them.
UniProt Q86TU7, whole entry: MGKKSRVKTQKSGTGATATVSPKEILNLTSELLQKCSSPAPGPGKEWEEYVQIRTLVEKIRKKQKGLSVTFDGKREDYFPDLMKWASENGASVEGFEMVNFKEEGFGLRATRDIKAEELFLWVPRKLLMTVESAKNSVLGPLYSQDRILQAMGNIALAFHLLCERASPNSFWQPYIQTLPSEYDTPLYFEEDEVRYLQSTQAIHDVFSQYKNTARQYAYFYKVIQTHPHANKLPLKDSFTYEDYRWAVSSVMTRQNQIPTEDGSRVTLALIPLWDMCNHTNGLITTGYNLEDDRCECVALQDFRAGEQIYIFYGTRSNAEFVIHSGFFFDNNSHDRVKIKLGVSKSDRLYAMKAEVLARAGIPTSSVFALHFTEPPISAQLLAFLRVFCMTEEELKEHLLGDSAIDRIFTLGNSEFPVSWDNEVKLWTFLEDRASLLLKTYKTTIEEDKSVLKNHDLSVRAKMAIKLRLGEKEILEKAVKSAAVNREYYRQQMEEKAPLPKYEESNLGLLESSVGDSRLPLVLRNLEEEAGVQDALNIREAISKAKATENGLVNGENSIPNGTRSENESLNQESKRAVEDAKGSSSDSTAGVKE

Assay [1] addresses T1, human SETD3 (Homo sapiens, UniProt Q86TU7). Kind of assay: MALDI-TOF MS methylation kinetics assay (Michaelis-Menten, steady state). Here is the method: Catalytic efficiencies were explored for SETD3-catalyzed methylation of linear βA peptides 1, 6, 8 and 10 (Fig. 5; Table 1). Kinetic parameters were determined using MALDI-TOF MS assays under steady-state conditions by incubation with saturating amounts of SAM (100 µM)[23]. Addition of SETD3 (200 nM) to varying concentrations of linear βA peptides (0–150 µM) in reaction buffer initiated the reaction, upon which the mixture was incubated at 37 °C and quenched at timepoints that guarantee v0-reaction rates for SETD3-catalyzed methylation.
Fig. 5 Michaelis–Menten kinetics of linear βA peptides at varying concentrations (3.125-150 µM) by SETD3 (200 nM) in presence of saturating amounts of SAM (100 µM) in reaction buffer (25 mM Tris, 20 mM NaCl, pH = 9.0) at 37 °C.
Kinetics evaluation was carried out with a MALDI-TOF MS assay under steady state conditions. βA peptides (3.125–150 µM) and SAM (100 µM) were dissolved in methylation buffer (25 mM Tris, 20 mM NaCl, pH = 9.0), upon which the reaction was initiated by addition of SETD3. Reactions were incubated at 37 °C and shaken at 750 rpm Eppendorf Thermomixer C for 30 min, upon which the reactions were quenched by addition of 10% TFA in MilliQ water (1:1). Reactions were aliquoted and mixed with α-cyano-4-hydroxycinnamic acid dissolved in MilliQ H2O and ACN (1:1, v/v) with 0.1% TFA. The aliquots were loaded onto a MTP 384 polished steel target for MALDI-TOF analysis using a UltrafleXtreme. Methylated product was quantified by determining the combined integrals of the various ionic species of the methylated product. Kinetic parameters were subsequently determined by plotting V0 values and actin peptide concentrations and fitting them to the Michaelis–Menten equation using GraphPad Prism software. Experiments were performed in duplicate and values are reported as mean [drawing 1] standard error (SE) (Figs. S3-S4).

Assay [2] has as its target T1, human SETD3. Nature of the assay: MALDI-TOF MS enzymatic substrate scope assay (SETD3-catalyzed methylation of βA peptides). It is filed as biochemical. The note with it: 1 µM SETD3, 10 µM βA peptide, 100 µM SAM, 25 mM Tris, 20 mM NaCl, pH 9.0, 37 °C. Here is the method:
We examined conformationally restrained βA peptides and linear controls as substrates for the recombinantly expressed human SETD3 employing MALDI-TOF MS to detect a characteristic + 14 Da mass increase upon methylation. Enzymatic reactions were evaluated using standard conditions (1 µM SETD3, 10 µM βA, 100 µM SAM) in methylation buffer (25 mM Tris, 20 mM NaCl, pH = 9.0 at 37 °C)[21]. The enzymatic reaction was quenched with 10% TFA in MilliQ water (1:1 v/v) at 1 h and 3 h before mass spectrometric analysis (Figs . 4 and S3-S4). […] Similarly, linear lactam controls 6 and 8, which substitute βA-I75 with a primary amine (Orn/Lys) were completely methylated within an hour (Fig. S4G, I). […] Finally, azide-alkyne Cu^I-mediated Huisgen 1,3-dipolar cycloaddition yields peptide 11 that was poorly (14%) methylated by SETD3 after 3 h under standard conditions (Figs. 4L and S4L). […]
SETD3 substrate scope experiments towards βA peptides were performed by incubation of βA peptides (10 µM) in methylation buffer (25 mM Tris, 20 mM NaCl, pH = 9.0) in the presence of SAM (100 µM) and SETD3 (1 µM) in a final volume of 50 µL for 1 and 3 h at 37 °C while shaking at 750 rpm in an Eppendorf Thermomixer C. […] The aliquots were loaded onto a MTP 384 polished steel target for MALDI-TOF analysis using a UltrafleXtreme and conversion to methylated product was monitored.

Setting [3] is: 200 nM SETD3, 3.125-150 µM peptide, 100 µM SAM, 25 mM Tris, 20 mM NaCl, pH 9.0, 37 °C, MALDI-TOF MS, duplicate, mean ± SE.

A word on the Km: it is the substrate concentration at which the rate is half of its maximum. Broadly, the kcat is the maximal rate divided by the concentration of active sites. As usually defined, the kcat/Km is the second-order rate constant that governs catalysis at low substrate concentration.

Turning to `CC[C@H](C)[C@H](NC(=O)[C@@H]1CCCN1C(=O)[C@H](Cc1ccc(O)cc1)NC(=O)[C@H](CCCCN)NC(=O)[C@H](CC(C)C)NC(=O)[C@@H](N)[C@@H](C)O)C(=O)N[C@@H](CCC(=O)O)C(=O)N[C@@H](Cc1c[nH]cn1)C(=O)NCC(=O)N[C@@H](CCCCN)C(=O)N[C@H](C(=O)N[C@H](C(=O)N[C@@H](CC(N)=O)C(=O)N[C@@H](Cc1c[nH]c2ccccc12)C(=O)N[C@@H](CC(=O)O)C(=O)N[C@@H](CC(=O)O)C(N)=O)[C@@H](C)O)C(C)C`, in assay [1] (setting [3]), the Km is 25.1 µM and the kcat was found to be 4.1 ± 0.158 s⁻¹. In assay [1] (200 nM SETD3, 3.125-150 µM peptide, 100 µM SAM, pH 9.0, 37 °C), the kcat/Km was 163000 M⁻¹ s⁻¹. In addition, in assay [1] (same conditions as Table 1), the “fold increase in catalytic efficiency (kcat/Km) relative to native βA-H73 sequence” value was 1.7 fold. In assay [2], the “SETD3-catalyzed methylation (conversion) within 1 h” value was “completely methylated”.
